{
  "source": "patent US6203776A",
  "about": "“Method for identifying adrenergic receptor antagonists having good tolerability” (University Technology Corporation, priority 1998, dated 2001)",
  "tested_on": "human β1 or β2 receptors",
  "assay": "Inverse agonist activity: inhibition of basal adenylyl cyclase activity (cAMP generation) in Sf9 membranes",
  "type": "biochemical",
  "method": "Sf9 cells were transfected with a baculovirus expression system coding for human β1 or β2 receptors as described in Chidiac et al., Molec.\nAdenylyl cyclase activity of Sf9 membranes was measured as described in Chidiac et al., Molec. […] The inhibition of basal cAMP generation in this system is a measure of inverse agonism.",
  "data": [
    {"smiles": "COc1ccccc1OCCNCC(O)COc1cccc2[nH]c3ccccc3c12", "note": "(centres unmarked) [carvedilol]", "values": [
      {"measurement": "percent reduction in basal adenylyl cyclase (AC) activity, maximal reduction of AC (FIG. 1A)", "setting": "Sf9 membranes, baculovirus expression system, maximum degree of inhibition", "result": "less than 50%"},
      {"measurement": "rank order of inverse agonist activity (FIG. 1B)", "setting": "concentration 10×Ki for the β2 receptor", "result": "metoprolol>propranolol≥carvedilol>xamoterol>bucindolol"}
    ]}
  ]
}
